Source: US11691928B2, “Compositions, systems and methods for delivery of an element in response to biological demand” (Lucent Biosciences, Inc., priority 2018, dated 2023)

What was measured:
[1] = tested on: mung bean plants; assay: Plant growth study with salts or compositions comprising zinc or manganese on wood pulp in soil at elevated concentrations; type: in vivo
Procedure: Mung bean seeds were planted in 2 g of sterile sunshine mix soil in autoclaved jars. […] The beans were transferred into soil with either salt or compositions comprising zinc or manganese loaded on wood pulp after 6 days. The wood pulp, acting as the carrier, was Canfor 350/70-1 (carrier C from Table 1). […] The root length was measured from start of roots to longest root tip. […] The plants to be used in the presence of compositions as disclosed herein were sowed in 2 g of sunshine mix to which 0.1 g of the composition was added, made of various concentrations of zinc or manganese. These were all watered with 5 mL deionized water. The beans grew in this treatment for 9 further days.

[2] = tested on: mung bean plants
[3] = tested on: tomato plants

With manganese chloride [manganese salt] the “mung bean stem height and root length growth” value ([1]; 1000 ppm and 2000 ppm manganese as salt in soil, 9 days, FIGS. 7(a), 7(b)) was “reduced stem height and root length growth”, the “toxicity for mung bean plants” value ([1]; 1000 ppm in soil) was “exhibits toxicity” and the “growth of bean plants” value ([2]; 1000 ppm concentration in soil, 10 days, FIGS. 5(a), 5(b)) was “reduced growth”. For the same substance, the “toxicity for bean plants” value ([2]; 1000 ppm in soil) was “exhibited toxicity”, the “growth of tomato plants” value ([3]; 1000 ppm concentration in soil, 11 days, FIGS. 6(a), 6(b)) was “did not negatively impact growth” and the “toxicity for tomato plants” value ([3]; 1000 ppm in soil) was “did not exhibit toxicity”.
